In general, IC50 refers to the concentration at which inhibition is half-maximal. Read a high IC50 as weaker potency in that assay.

The assay concerns the target T1, Serine protease HTRA2, mitochondrial (Homo sapiens, UniProt O43464).
T1 sequence (O43464 whole entry): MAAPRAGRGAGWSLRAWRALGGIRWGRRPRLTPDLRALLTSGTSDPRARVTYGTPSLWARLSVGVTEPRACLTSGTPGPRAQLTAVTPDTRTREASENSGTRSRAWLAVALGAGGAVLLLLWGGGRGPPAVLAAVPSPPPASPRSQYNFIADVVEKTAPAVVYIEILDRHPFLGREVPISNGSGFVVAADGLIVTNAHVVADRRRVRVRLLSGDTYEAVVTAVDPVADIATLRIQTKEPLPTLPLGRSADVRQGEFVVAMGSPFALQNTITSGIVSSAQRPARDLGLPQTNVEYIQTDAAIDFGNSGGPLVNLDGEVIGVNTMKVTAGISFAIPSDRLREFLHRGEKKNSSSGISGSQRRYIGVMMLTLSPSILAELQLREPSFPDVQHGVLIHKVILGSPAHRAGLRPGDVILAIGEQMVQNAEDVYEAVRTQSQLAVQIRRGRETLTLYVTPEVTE
The experiment in a line: Inhibition of His-tagged Omi/HtrA2 (134 to 458 residues) (unknown origin) expressed in TB1 Escherichia coli at 10 to 100 uM pre-incubated for 10 mins before un-labeled beta-casein substrate addition and measured after 30 mins by Coomassie blue staining based SDS-PAGE analysis.

Structures are written as SMILES.

In turn, `COc1ccc(-c2ccc(C=C3C(=O)N(c4ccccc4)C(=S)N(c4ccccc4)C3=O)o2)cc1Cl` gave a half-inhibitory concentration (IC50) of 45.9 µM.

The values are drawn from ChEMBL document CHEMBL4482313, “Method and compounds for inhibition of cell death” (2012).
